Values of other authors in article PMC11999338, “Factor XI localization in human deep venous thrombus and function of activated factor XI on venous thrombus formation and hemostasis” (Research and Practice in Thrombosis and Haemostasis, 2025).

Parameters: method as in PMID 35385695
Details: patients with atrial fibrillation; asundexian 50 mg, once daily; cited from earlier work

In the case of asundexian, the bleeding rate is given as 0.4%.
